This test has as its system F. multivorum. Briefly: Effect of TCA cycle intermediates in the growth medium on zeaxanthin production. Format: cell-based, Flavobacterium multivorum. To be noted: growth medium supplemented with TCA intermediate. Here is the method: Pigment extraction from bacterial cells. One ml of culture broth was centrifuged at 5000 rpm for 10 min at 4° C. The supernatant was discarded and media components of the cell pellet were washed away by repeated suspension in sterile distilled water and centrifugation. The cell mass was subjected to sonication using a sonic dismembrator (Fisher Scientific, Model number F60) in the presence of 1 ml cold, oxygen-free methanol containing 0.01% butylated hydroxy toluene (BHT) (w/v) for 30 seconds (output power 5). Methanol extraction was repeated for complete extraction of carotenoids. The sonicated sample was centrifuged to remove the white cell pellet. The supernatant contains extracted carotenoids.
High performance liquid chromatography (HPLC). The pigments in methanol were dried by vacuum evaporation in a Speedvac Plus (SC 110, Savant) and re-dissolved in one ml of HPLC mobile phase (hexane: dichloromethane: methanol: N,N′-di-isopropylethylamine (80:19.2:0.7:0.1 v/v)). HPLC separation was carried out at a flow rate of 1.0 ml min^−1 on a cyano column (Microsorb 25 cm length×4.6 mm id, Rainin Instrument Co. Woburn, Mass., U.S.A.). The column was maintained at room temperature and the HPLC detector was operated at 450 nm.
Media optimization for zeaxanthin production.

For α-ketoglutarate, the “effect on the volumetric production of zeaxanthin” value is given as “maximum stimulatory effect”.

The record behind these values is patent US20050214898A1, “Methods of carotenoid production in bacteria” (priority 2004, published 2005).
